## Antibody variant affinities, Ab-14 light chain, assay 1

Reference: Engelhart et al. 2022, doi:10.1038/s41597-022-01779-4. File: FLAb, binding data.

All variants were tested on one target, the spike HR2 peptide PDVDLGDISGINAS (SARS-CoV-2).

Each scFv is VH, the linker GGGGSGGGGSGGGGS, VL, as in the parent Ab-14, and differs from it in the CDRs of the light chain only.
VH: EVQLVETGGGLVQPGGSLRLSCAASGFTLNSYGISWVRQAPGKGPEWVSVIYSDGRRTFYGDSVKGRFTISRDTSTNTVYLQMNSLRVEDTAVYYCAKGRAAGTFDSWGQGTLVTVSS
VL: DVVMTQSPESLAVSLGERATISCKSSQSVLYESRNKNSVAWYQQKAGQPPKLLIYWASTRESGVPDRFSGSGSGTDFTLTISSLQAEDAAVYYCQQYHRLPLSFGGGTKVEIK

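The starting antibody came from a phage panning campaign against this peptide. The library (AAYL50) carries one to three amino acid substitutions per variant, with no insertions or deletions. The assay is AlphaSeq: two haploid yeast populations carry antibody and antigen on their surface. After mating in shaken culture at 30 °C for 16 h, diploids were selected and their barcode pairs sequenced. The ratio of observed to expected reads was calibrated, replicate by replicate, on BCL2-family standards whose Kd was known from biolayer interferometry. The assay was run in three technical replicates.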

Each variant is given by its three light chain CDRs, as the data file delimits them; those of the parent are KSSQSVLYESRNKNSVA, WASTRES, QQYHRLPLS.
Values are log10 of the apparent Kd in nM; lower means stronger binding.
"nd" marks a missing value. The strain was present, yet no cells mated with the target were sequenced in that replicate, which points to weak or no binding.
Empty control strains, which show no peptide, gave a signal in 18% of pairings with library AAYL50; the median was 4.19 and 95% of these signals were weaker than 2.99. No background was subtracted. For each scFv, signals with the empty controls are counted beside the result, with their mean in brackets.
In this assay the parent's reference entry averaged 0.65; its copy inside this library read 1.68.

| CDR-L1 | CDR-L2 | CDR-L3 | replicates, log10 nM | empty controls |
|---|---|---|---|---|
| KSSQSVLGESRNKNSVC | WASTRES | QQQHRLPLS | 5.86 3.40 nd | 1/9 (4.01) |
| KSSQSVLYESRNKNSVA | EASTRES | QQYHRCLLS | nd nd nd | 0/9 |
| WSSQSVLYFSRNKNSVA | WASTRES | QQYDRLPLS | nd 2.41 3.66 | 0/9 |
| KSSDCVLYESRNKNSFA | WASTRES | QQYHRLPLS | nd 2.73 nd | 0/9 |
| KSSQSVLLESRNKNSVA | WAVTRES | QQYHLLPLS | 2.18 2.12 2.18 | 1/9 (5.50) |
| KSSQHVLYESRNKNSVA | YASTRES | QQYHRLPLS | 0.28 0.64 0.31 | 1/9 (2.75) |
| KFSQSVLYESRNLNSVA | WASTRES | QQYHRLPLK | 0.29 0.99 0.62 | 1/9 (2.47) |
| KLSQSVLYESRYKNSVA | WASTRES | QQYHQLPLS | 0.54 0.76 0.73 | 5/9 (4.03) |
| KSSQSVLIESRNKSSVA | WASTRES | QQYHDLPLS | 0.79 0.84 0.88 | 3/9 (4.48) |
| KSSQSVLYESRQKNSVA | WASTRES | QQYHRLPLS | 0.67 0.92 0.80 | 3/9 (4.60) |
| KSSQSVLYESRNKNSVA | WAMTRES | QQYHRLPLR | 4.79 2.62 nd | 3/9 (4.11) |
| KSPQSVLPESRNKNSVA | WASTVES | QQYHRLPLS | 3.46 nd 3.45 | 1/9 (3.97) |
| KSSQSVLYESRPKYSVA | WASTRES | QQYHRLPLS | 1.41 1.59 1.66 | 0/9 |
| KSSQSALYESRNKNHVA | WESTRES | QQYHRLPLS | nd nd 2.94 | 0/9 |
| KSSQSVLYESRNVNSVA | WASRRES | QQYNRLPLS | 0.70 0.96 0.92 | 1/9 (3.81) |
| KSSQSVLYESRNKNWVA | WASTRQS | QQYHRLPLS | nd nd nd | 0/9 |
| KSSQSVCYESRNKNSVA | WASTKES | QQYHRLPLS | 1.87 1.85 1.99 | 3/9 (4.83) |
| KSSQSVLYESRIKNSVA | WASTRES | QQYHVLPLT | 0.95 1.02 1.20 | 0/9 |
| KSSQSVLYESRNKNCVA | WAGTRES | QQYERLPLS | 3.37 3.04 5.17 | 4/9 (4.17) |
| KSSQSVLYELRNKNSWA | WADTRES | QQYHRLPLS | 3.34 nd nd | 1/9 (2.72) |
| ESSQSVLYESVNKNSVA | WASTRES | RQYHRLPLS | nd nd nd | 0/9 |
| KSYQSVLYEMRNKNSVA | WAWTRES | QQYHRLPLS | 4.43 2.64 nd | 2/9 (3.93) |
| VSSQSVLYESRDKNSVA | WASTIES | QQYHRLPLS | nd nd nd | 0/9 |
| KSSQSHLYESRNMNSVA | WASTRES | QQYARLPLS | nd nd nd | 2/9 (2.75) |
| KSSQSHLYESRNKNSVA | WASHRES | QQYHRLPLH | 2.57 nd 2.33 | 2/9 (3.23) |
| KSSQSVLYEIRNKNSVA | WASGRES | QQYHRLPES | 4.48 nd nd | 0/9 |
| KSSQSVLYEQRNKNSVA | WDSTRES | QQYHRLPLQ | nd 2.95 3.82 | 1/9 (3.27) |
| KSSQSVLYESRTKNSVA | WWSTRES | QQYHRAPLS | nd 3.47 4.07 | 2/9 (4.00) |
| KSYQSVLYESRNKNSFA | WASTRES | QQMHRLPLS | nd nd nd | 1/9 (3.31) |
| KSSQSVLYKSRNKNSTA | WASTRES | QQYHRLSLS | nd nd nd | 0/9 |
| KSSQSVLYESRNKNSVA | WASTRES | VQYSRLNLS | 3.74 3.48 nd | 0/9 |
| KSSQSVLYEVRMKNSVA | WASTRES | QQHHRLPLS | nd nd nd | 0/9 |

Excerpt, the final 4 entries:

CDR-L1,CDR-L2,CDR-L3,"replicates, log10 nM",empty controls
KSYQSVLYESRNKNSFA,WASTRES,QQMHRLPLS,nd nd nd,1/9 (3.31)
KSSQSVLYKSRNKNSTA,WASTRES,QQYHRLSLS,nd nd nd,0/9
KSSQSVLYESRNKNSVA,WASTRES,VQYSRLNLS,3.74 3.48 nd,0/9
KSSQSVLYEVRMKNSVA,WASTRES,QQHHRLPLS,nd nd nd,0/9